Test results published in BindingDB's records for doi:10.1016/j.bmc.2015.04.057 (Beni-Suef University, 2015).
pIC50: −log10 of the molar value.

Assay: Antiinflammatory activity in mouse RAW264.7 cells assessed as inhibition of LPS-induced iNOS activity incubated for 30 mins prior to LPS challenge measured after 24 hrs by Griess assay

pIC50: 5.84
SMILES: O=c1sc2ccccc2n1CCCCCN1CCN(CCCCn2c(=O)sc3ccccc32)CC1
